Literature values as cited in US6444862B1, “Synthesis and isolation of metal alkoxides” (Mine Safety Appliances Company, priority 2000, dated 2002).

Settings: the parent alcohol; cited from earlier work

sodium isopropoxide
solubility in isopropanol: about 2 wt %
